Assay results from PubChem BioAssay AID1259310 (The Scripps Research Institute Molecular Screening Center, 2017).
The list shows a part of the results, in another mix than the full data. Calls of active or inactive are those of the source. No stated cut-off is given here; in the data, active means normalized activity above about 1.9%; inactive means the rest.

Chains of the proteins cited; added tags and fusions are not shown.
UniProt Q969H0, whole entry, looked up: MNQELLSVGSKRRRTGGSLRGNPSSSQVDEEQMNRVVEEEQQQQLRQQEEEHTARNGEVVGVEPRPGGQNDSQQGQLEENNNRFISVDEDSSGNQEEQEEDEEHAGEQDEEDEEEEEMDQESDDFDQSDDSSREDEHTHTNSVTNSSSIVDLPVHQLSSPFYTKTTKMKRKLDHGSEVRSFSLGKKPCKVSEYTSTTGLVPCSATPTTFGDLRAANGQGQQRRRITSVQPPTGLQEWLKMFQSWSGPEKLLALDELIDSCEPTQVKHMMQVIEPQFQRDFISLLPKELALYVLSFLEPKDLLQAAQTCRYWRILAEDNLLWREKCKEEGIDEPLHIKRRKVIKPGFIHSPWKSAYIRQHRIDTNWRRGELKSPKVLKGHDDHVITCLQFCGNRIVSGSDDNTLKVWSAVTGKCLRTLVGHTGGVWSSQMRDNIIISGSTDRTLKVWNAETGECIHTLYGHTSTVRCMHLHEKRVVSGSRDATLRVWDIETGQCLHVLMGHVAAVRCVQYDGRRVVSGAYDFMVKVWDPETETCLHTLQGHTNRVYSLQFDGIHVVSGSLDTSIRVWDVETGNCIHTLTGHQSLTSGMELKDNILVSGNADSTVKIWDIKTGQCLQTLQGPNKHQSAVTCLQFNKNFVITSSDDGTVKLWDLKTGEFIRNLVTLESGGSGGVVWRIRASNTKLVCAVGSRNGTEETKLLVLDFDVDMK

molecular target: F-box/WD repeat-containing protein 7 (Homo sapiens) (UniProt Q969H0); experiment: FBW7 E3 ligase activators, primary screen, biochemical, AlphaScreen, human (AID 1259310); details: AlphaScreen FBW7–phospho-cyclin E peptide binding, activator screen; at 26.1 µM; active compounds read high;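 further: purified mutant Fbw7 with reduced substrate affinity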

SMILES | normalized activity (activation)
CC(=O)OC=C1c2cc([N+](=O)[O-])cc([N+](=O)[O-])c2-c2c1cc([N+](=O)[O-])cc2[N+](=O)[O-] | inactive: -0.21%
Cc1cc(SC(NC(=O)CC(C)C)C(Cl)(Cl)Cl)ncn1 (stereo unspecified) | inactive: 0.49%
N=C1N=C(c2ccc([N+](=O)[O-])cc2)CC(C(Cl)(Cl)Cl)S1 (stereo unspecified) | inactive: -0.3%
Nc1c([N+](=O)[O-])cc([N+](=O)[O-])c(Nc2cccc(C(=O)O)c2)c1[N+](=O)[O-] | inactive: -0.11%
Oc1ccccc1CNc1ccccn1 | inactive: -0.13%
COc1ccc2c(c1)nc(NCCCl)n2C | inactive: 0.73%
Nc1cc(N)c2nonc2c1[N+](=O)[O-] | inactive: -0.46%
O=C(Nc1ccc([N+](=O)[O-])cc1Cl)c1ccc([N+](=O)[O-])cc1[N+](=O)[O-] | inactive: 0.04%
CCOP(=O)(OCC)SCC(=O)NCCC(=O)O | inactive: 0%
COC(=O)c1ccc(OP2(=S)OCC(C)(C)CO2)cc1 | inactive: 0.96%
CCCCOP(=O)(OCCCC)SC | inactive: 0.23%
CCOc1ccc(/C=C2/C(=O)NC(=O)N(Cc3ccco3)C2=O)cc1 | inactive: -0.42%
CCN(CC)C1=NP(=O)(c2ccccc2)NC(c2ccccc2)=C1C#N (stereo unspecified) | inactive: -0.04%
Cc1cc(C)nc(SC(NC(=O)C(C)C)C(Cl)(Cl)Cl)n1 (stereo unspecified) | inactive: -0.07%
CCOC(=O)N1C2CCC1CC(OC(=O)C(O)(c1ccccc1)c1ccccc1)C2 (stereo unspecified) | inactive: -0.07%
COc1ccc(CCN2CCC(N(Cc3ccco3)C(=O)NC(C)C)CC2)cc1 | inactive: -0.06%
Cc1ccc(N/C(=N/P(=O)(N2CCOCC2)N2CCOCC2)N2CCOCC2)cc1 | inactive: 0.46%
NC(=O)c1cc([N+](=O)[O-])cc([N+](=O)[O-])c1N | inactive: -0.02%
O=C(Nc1ccc(C(F)(F)F)cc1[N+](=O)[O-])c1cc([N+](=O)[O-])cc([N+](=O)[O-])c1 | inactive: -0.03%
COc1ccc(NC2=NCC(CBr)S2)cc1 (stereo unspecified) | inactive: -0.18%
CCOP(=O)(OCC)C(=O)c1ccccc1Cl | inactive: -0.1%
O=C(Nc1ccccc1[N+](=O)[O-])c1ccc([N+](=O)[O-])cc1[N+](=O)[O-] | inactive: -0.03%
CN(C(=O)COC(=O)C(O)(c1ccccc1)c1ccccc1)c1ccccc1 | inactive: 0.38%

SMILES | normalized activity (activation)
O=[N+]([O-])c1ccc(Oc2ccccc2[N+](=O)[O-])c([N+](=O)[O-])c1 | inactive: 0.44%
O=[N+]([O-])c1cc([N+](=O)[O-])c(CCN2CCOCC2)c([N+](=O)[O-])c1 | inactive: 0.37%
CCOP(=Nc1nc2ccccc2n2nnnc12)(OCC)OCC | inactive: 0.48%
O=[N+]([O-])c1cc([N+](=O)[O-])c(OCC(O)C[n+]2ccccc2)c([N+](=O)[O-])c1 (stereo unspecified) | inactive: -0.29%
CCOP(=S)(OCC)c1cccc(C(=O)O)c1 | inactive: -0.05%
O=[N+]([O-])c1cc([N+](=O)[O-])c(SCCNc2ccccc2)c([N+](=O)[O-])c1 | inactive: -0.13%
CC(C)NC(=O)N(Cc1ccco1)C1CCN(CCc2ccccn2)CC1 | inactive: 0.11%
Cc1cc(NP2(=O)C=C(c3ccccc3)OC(c3ccccc3)=C2)n[nH]1 | inactive: -0.07%
Cn1c(SCC(=O)c2ccccc2OC(F)F)nc2ccccc21 | inactive: 0.11%
ClCCN1CCn2c1nc1ccccc12 | inactive: -0.17%
CCOP(=O)(NNc1ccccc1)OCC | inactive: 0.73%
O=[N+]([O-])c1cc([N+](=O)[O-])c2nc(-c3ccc([N+](=O)[O-])o3)[nH]c2c1 | inactive: 0%
O=C(COC(=O)C(O)(c1ccccc1)c1ccccc1)NCc1ccc2c(c1)OCO2 | inactive: -0.29%
CCCCOP(=O)(OCCCC)N(CC)CC | inactive: -0.01%
CCOP(=O)(Nc1ccc(Br)cc1)OCC | inactive: -0.05%
O=C(c1ccc2c(c1)OCO2)N(Cc1ccco1)C1CCN(CCc2ccccn2)CC1 | inactive: -0.19%
O=[N+]([O-])c1cc(/C=N/N=C/c2cc([N+](=O)[O-])cc([N+](=O)[O-])c2O)c(O)c([N+](=O)[O-])c1 | inactive: -0.52%
C[n+]1c2n(c3ccccc31)CC(Cl)CS2 (stereo unspecified) | inactive: 0.61%
Cc1c(Nc2ccc([N+](=O)[O-])cc2[N+](=O)[O-])cccc1[N+](=O)[O-] | inactive: 0.06%
C/C(=N\Nc1ccc([N+](=O)[O-])cc1[N+](=O)[O-])c1cccc([N+](=O)[O-])c1 | inactive: -0.06%
CN1C(=O)C2C(NC(=NCCN3CCOCC3)N2C)N(C)C1=O (stereo unspecified) | inactive: 0.52%
CC(C)(C)C(=O)NC(Sc1ccncn1)C(Cl)(Cl)Cl (stereo unspecified) | inactive: -0.2%
Nc1c([N+](=O)[O-])cc(C(=O)c2cc([N+](=O)[O-])c(N)c([N+](=O)[O-])c2)cc1[N+](=O)[O-] | inactive: -0.09%

SMILES | normalized activity (activation)
CC(=O)N(Cc1ccco1)C1CCN(CCc2cccs2)CC1 | inactive: -0.03%
ClC(Cl)(Cl)C1=NP2(=NC(c3ccccc3)=N1)OCCCO2 | inactive: 0.06%
CCN/N=C/c1c([N+](=O)[O-])cc([N+](=O)[O-])cc1[N+](=O)[O-] | inactive: -0.1%
CCOc1ccc(NC(=O)c2cc([N+](=O)[O-])cc([N+](=O)[O-])c2)c([N+](=O)[O-])c1 | inactive: 0.21%
CCOP(=O)(Nc1cccc(C(F)(F)F)c1)OCC | inactive: 0.08%
Cc1ccc(S(=O)(=O)N2C(=O)CSC2C(Cl)(Cl)Cl)cc1 (stereo unspecified) | inactive: 0%
Cc1cc(C)nc(NNc2c([N+](=O)[O-])cc([N+](=O)[O-])c(C)c2[N+](=O)[O-])n1 | inactive: -0.08%
O=C(N/N=C/c1ccc([N+](=O)[O-])cc1)c1cc([N+](=O)[O-])cc([N+](=O)[O-])c1 | inactive: -0.15%
Cc1cc(NP2(=O)C=C(c3ccccc3)SC(c3ccccc3)=C2)n[nH]1 | inactive: 0.52%
Cc1nc(Nc2cccc([N+](=O)[O-])c2)nc(Nc2cccc([N+](=O)[O-])c2)c1[N+](=O)[O-] | inactive: -2.34%
O=C(OC1CN2CCC1CC2)C1COc2ccccc2O1 (stereo unspecified) | inactive: 0.82%
COP(=O)(NS(=O)(=O)c1ccc(Cl)cc1)OC | inactive: -0.02%
O=C(CCNCCCl)c1ccccc1 | inactive: -0.07%
O=P(Nc1ccccn1)(OCC(F)(F)F)Oc1ccccc1 (stereo unspecified) | inactive: 0.18%
CCCCOP1(=S)N=C2c3ccccc3CN2c2cc(N(C)C)ccc21 (stereo unspecified) | inactive: 0.07%
CCc1nc2c(n1)c1c(non1O)c1c2no[n+]1[O-] | inactive: 0.09%
CCOC(=O)c1ccccc1OP(=O)(OCC)SCC(C)C (stereo unspecified) | inactive: 0.07%
Cc1c([N+](=O)[O-])c([N+](=O)[O-])nn1CC(=O)Nc1cc(O)cc([N+](=O)[O-])c1 | inactive: -0.43%
Cc1c([N+](=O)[O-])cc(C(=O)Nc2ccc([N+](=O)[O-])cc2)cc1[N+](=O)[O-] | inactive: 0.02%
Cc1cccc(NC2=NCC(CBr)S2)c1 (stereo unspecified) | inactive: 0.47%
N=C(N)SCC(Br)CN1C(=O)c2ccccc2C1=O (stereo unspecified) | inactive: -0.03%
CC(C)OC(=O)NC(SC#N)C(Cl)(Cl)Cl (stereo unspecified) | inactive: 0.49%
O=P(/N=C(/N1CCOCC1)C(Cl)(Cl)Cl)(N1CCOCC1)N1CCOCC1 | inactive: -0.12%

SMILES | normalized activity (activation)
O=C(COC(=O)C(O)(c1ccccc1)c1ccccc1)NCc1cccs1 | inactive: 0.13%
O=C(OC1CN2CCC1CC2)c1cccc(F)c1 (stereo unspecified) | inactive: -0.23%
CC1Cc2ccccc2N1C(=O)COC(=O)C(O)(c1ccccc1)c1ccccc1 (stereo unspecified) | inactive: 0.01%
CNC(=O)c1nsnc1NCCCl | inactive: -0.46%
CCOP(=O)(Nc1cccc(F)c1)OCC | inactive: 0.07%
O=C(N/N=C/c1ccc([N+](=O)[O-])o1)c1cc([N+](=O)[O-])cc([N+](=O)[O-])c1 | inactive: -0.04%
COc1ccc(CCN2CCC(N(Cc3ccco3)C(=O)c3cccc(C#N)c3)CC2)cc1 | inactive: -0.09%
Cc1ccc(NP(=O)(OCC(C)C)OCC(C)C)nc1 | inactive: 1.01%
O=[N+]([O-])c1ccc(N/N=C/C=C/c2ccc([N+](=O)[O-])o2)c([N+](=O)[O-])c1 | inactive: -0.01%
COc1ccc(S(=O)(=O)N(CCCl)CCCl)cc1 | inactive: 0.07%
CC(C)NC(=O)N(Cc1cccnc1)C1CCN(CCc2cccs2)CC1 | inactive: -0.01%
O=C(Nc1c(Cl)cc([N+](=O)[O-])cc1[N+](=O)[O-])c1ccc([N+](=O)[O-])cc1 | inactive: -0.16%
BrCC1Cn2c(nnc2-c2cccnc2)S1 (stereo unspecified) | inactive: -0.12%
COc1ccc(/C=C2/C(=O)NC(=O)N(Cc3ccco3)C2=O)c(OC)c1 | inactive: -0.78%
O=C(Nc1cccc(F)c1)N(Cc1ccco1)C1CCN(CCc2ccccn2)CC1 | inactive: 0.26%
CC(C)NC(=O)N(Cc1ccco1)C1CCN(CCc2cccs2)CC1 | inactive: 0.03%
O=P(/C=C(\Cl)c1ccccc1)(/C=C(\Cl)c1ccccc1)Nc1nncs1 | inactive: 0.02%
O=[N+]([O-])c1cc([N+](=O)[O-])c(NCCCO)c([N+](=O)[O-])c1 | inactive: 0.15%
CC(=O)OC1CN2CCC1C(c1ccccc1)C2 (stereo unspecified) | inactive: 0.33%
CCc1cc2c[n+](C3CCCCC3)sc2s1 | inactive: -0.22%
COc1ccccc1OP(=O)(Nc1ccccn1)Oc1ccccc1OC | inactive: 0.08%
O=C(COC(=O)C(O)(c1ccccc1)c1ccccc1)NCCN1C(=O)CSC1=O | inactive: -0.15%
